According to PubChem BioAssay AID504441 (Broad Institute, 2011):
The entries are a selection whose mix differs from that of the whole data set. The source made the active and inactive calls. No stated cut-off is given here; in the data, active means inhibition above about 50%; inactive means the rest.

Biological target: Dual specificity tyrosine-phosphorylation-regulated kinase 1A (Rattus norvegicus) (UniProt Q63470)
Assay: inhibition of Dyrk1A kinase activity – biochemical, single point, plate reader, primary screen (AID 504441);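 further: plate controls were vehicle with enzyme for no effect and no enzyme for full effect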
Settings: ADP-Glo luminescence, NFATc1 peptide, at 12.5 µM, active compounds read high

SMILES	inhibition
CC1=NCCc2c1[nH]c1ccccc21.O=[N+]([O-])c1cc([N+](=O)[O-])c(O)c([N+](=O)[O-])c1	inactive: 0.41%
O=C(O)c1cccc(Nc2c([N+](=O)[O-])cc([N+](=O)[O-])cc2[N+](=O)[O-])c1	inactive: 10.3%
Cc1ccc(C)c(NP(C)(=O)Oc2ccccc2)c1 (configuration not stated)	inactive: -0.589%
CP(=O)(Nc1cccc(Br)c1)Oc1ccccc1 (configuration not stated)	inactive: -2.2%
Cc1cc(C)cc(OP(C)(=O)Nc2ccccn2)c1 (configuration not stated)	inactive: 0.892%
CCOC(=O)c1ccc(NP(C)(=O)Oc2cc(C)cc(C)c2)cc1 (configuration not stated)	inactive: 3.61%
Cc1cc(C)cc(OP(C)(=O)Nc2ccc(C)cc2C)c1 (configuration not stated)	inactive: 19.9%
COc1ccccc1OP(C)(=O)Nc1cccc(Br)c1 (configuration not stated)	inactive: 7.72%
Cc1nc2ccc3ccccc3c2s1.O=[N+]([O-])c1cc([N+](=O)[O-])c(O)c([N+](=O)[O-])c1	inactive: -7.42%
O=[N+]([O-])c1cc([N+](=O)[O-])c(-c2cnn(-c3ccccc3)c2)c([N+](=O)[O-])c1	inactive: 6.8%
O=[N+]([O-])c1cc([N+](=O)[O-])c(-n2nnc3ccccc32)c([N+](=O)[O-])c1	inactive: -1.46%
CP(=O)(Nc1ccc(SC(F)(F)F)cc1)Oc1ccccc1 (configuration not stated)	inactive: -3.16%
CCCOc1ccc(NP(C)(=O)Oc2ccc(Cl)cc2)cc1 (configuration not stated)	inactive: 1.67%
CN1CCCCC1COC(=O)C1(O)c2ccccc2CCc2ccccc21 (configuration not stated)	inactive: -1.36%
COc1ccccc1OP(C)(=O)Nc1c(C)cccc1C (configuration not stated)	inactive: -1.63%
CCOC(=O)C(CC)C1=NC(C)(C)Cc2ccccc21.O=[N+]([O-])c1cc([N+](=O)[O-])c(O)c([N+](=O)[O-])c1 (configuration not stated)	inactive: -3.28%
O=[N+]([O-])c1cc([N+](=O)[O-])c(Nc2nnnn2CCO)c([N+](=O)[O-])c1	inactive: -4.63%
CC1=C2N=C(C=C3N=C(C(C)=C4[N-][C@@](C)([C@@H]5N=C1[C@](C)(CCC(=O)NC[C@@H](C)OP(=O)([O-])O[C@H]1[C@@H](O)[C@@H](n6cnc7cc(C)c(C)cc76)O[C@@H]1CO)[C@H]5CC(N)=O)[C@@](C)(CC(N)=O)[C@@H]4CCC(N)=O)[C@@](C)(CC(N)=O)[C@@H]3CCC(N)=O)C(C)(C)[C@@H]2CCC(N)=O.[C-]#N.[Co+3]	inactive: 30.8%
CP(=O)(Nc1ccccc1Br)Oc1ccccc1 (configuration not stated)	inactive: -6.26%

SMILES	inhibition
COc1ccccc1OP(C)(=O)Nc1ccccc1 (configuration not stated)	inactive: -0.316%
CP(=S)(Nn1cnnc1)Oc1ccccc1 (configuration not stated)	inactive: 4.79%
CCOC(=O)c1ccc(NP(C)(=O)Oc2ccc(OC)cc2)cc1 (configuration not stated)	inactive: -2.92%
CCOP(C)(=S)SCC(=O)NC(C)C(=O)O (configuration not stated)	inactive: 0.559%
Cc1cc(C)cc(OP(C)(=O)Nc2ccc(SC(F)(F)F)cc2)c1 (configuration not stated)	inactive: 8.02%
CCc1ccc(OP(C)(=O)N2CCN(c3ccc([N+](=O)[O-])cc3)CC2)cc1 (configuration not stated)	inactive: 5.99%
CP(=O)(NC(=O)Nc1ccccc1)Oc1ccccc1 (configuration not stated)	inactive: -0.906%
CP(=O)(Oc1ccccc1)OC(c1ccccc1)C(F)(F)F (configuration not stated)	inactive: -14.3%
Cc1cccc(C)c1OP(C)(=O)Nc1ccc(SC(F)(F)F)cc1 (configuration not stated)	inactive: 0.0135%
COc1ccc(OP(C)(=O)Nc2cccc(F)c2)cc1 (configuration not stated)	inactive: -3.69%
COc1ccccc1OP(C)(=O)Nc1cc(Cl)ccc1C (configuration not stated)	inactive: 5.87%
Cc1ccc(NP(C)(=O)Oc2ccccc2)c(C)c1 (configuration not stated)	inactive: -2.04%
COc1ccccc1OP(C)(=O)Nc1ccc(C)cc1 (configuration not stated)	inactive: 8.76%
CCOC(=O)c1ccc(NP(C)(=O)Oc2ccccc2)cc1 (configuration not stated)	inactive: -2.06%
O=[N+]([O-])c1ccc2c(c1)C=Nc1ccccc1O2	inactive: -3.49%
CC(C)(C)c1ccc(OP(C)(=O)Nc2ccc(SC(F)(F)F)cc2)cc1 (configuration not stated)	inactive: -1.65%
O=[N+]([O-])c1cc([N+](=O)[O-])c(Nc2cccnc2)c([N+](=O)[O-])c1	inactive: 0.493%
CP(=O)(OCCOc1ccccc1)OCCOc1ccccc1	inactive: -3.99%
CP(=O)(Nc1ccc(Cl)cc1Cl)Oc1ccccc1 (configuration not stated)	inactive: -5.98%

SMILES	inhibition
CCCCCCCCCCCCCCCC1C[N+](C)(C)CCOP(C)(=O)O1 (configuration not stated)	inactive: -0.725%
COc1ccccc1OP(C)(=O)Nc1ccc(C)c(C)c1 (configuration not stated)	inactive: 10.1%
COc1ccc(OP(C)(=O)Nc2ccccc2Br)cc1 (configuration not stated)	inactive: -1.88%
Cc1cc(C)cc(OP(C)(=O)Nc2cccc(C(F)(F)F)c2)c1 (configuration not stated)	inactive: -2.62%
O=C1C(O)=C([N+](=O)[O-])C(=O)C(O)=C1[N+](=O)[O-]	inactive: 1.04%
COc1ccccc1OP(C)(=O)Nc1ccc(C)cc1C (configuration not stated)	inactive: 0.375%
CP(=O)(Nc1ccccn1)Oc1ccccc1 (configuration not stated)	inactive: -4.03%
CCc1ccc(OP(C)(=O)O)cc1	inactive: 0.737%
O=[N+]([O-])c1cc([N+](=O)[O-])c(Nc2ccccn2)c([N+](=O)[O-])c1	inactive: 15.1%
Cc1c(NP(C)(=O)Oc2ccc(C(C)C)cc2)c(=O)n(-c2ccccc2)n1C (configuration not stated)	inactive: 1.31%
COc1ccc(OP(C)(=O)Nc2ccccn2)cc1 (configuration not stated)	inactive: 1.92%
COc1ccccc1OP(C)(=O)Nc1ccc(Br)cc1 (configuration not stated)	inactive: 5.73%
CN(C)C(=O)c1c([N+](=O)[O-])cc([N+](=O)[O-])cc1[N+](=O)[O-]	inactive: 4.36%
CC(C)(C)c1ccc(OP(C)(=O)O)cc1	inactive: -3.88%
COc1ccccc1OP(C)(=O)Nc1ccccc1Br (configuration not stated)	inactive: -4.32%
CP(=O)(Nc1ccc(Cl)cc1)Oc1ccc(F)cc1 (configuration not stated)	inactive: -3.68%
COc1ccccc1OP(C)(=O)Nc1c(C)n(C)n(-c2ccccc2)c1=O (configuration not stated)	inactive: -3.37%
CP(=O)(Oc1ccccc1)N1CCOC1=O (configuration not stated)	inactive: 4.72%
COc1ccc(OP(C)(=O)Nc2ccc(Br)cc2)cc1 (configuration not stated)	inactive: -1.61%
